Consider 1 compound from PubChem BioAssay AID743257 (The Scripps Research Institute Molecular Screening Center, 2014).

Sequences of proteins named here, by UniProt entry; tags and fusion partners are left off. Residues count along the entry.
UniProt P78536, 215-824 limits assumed: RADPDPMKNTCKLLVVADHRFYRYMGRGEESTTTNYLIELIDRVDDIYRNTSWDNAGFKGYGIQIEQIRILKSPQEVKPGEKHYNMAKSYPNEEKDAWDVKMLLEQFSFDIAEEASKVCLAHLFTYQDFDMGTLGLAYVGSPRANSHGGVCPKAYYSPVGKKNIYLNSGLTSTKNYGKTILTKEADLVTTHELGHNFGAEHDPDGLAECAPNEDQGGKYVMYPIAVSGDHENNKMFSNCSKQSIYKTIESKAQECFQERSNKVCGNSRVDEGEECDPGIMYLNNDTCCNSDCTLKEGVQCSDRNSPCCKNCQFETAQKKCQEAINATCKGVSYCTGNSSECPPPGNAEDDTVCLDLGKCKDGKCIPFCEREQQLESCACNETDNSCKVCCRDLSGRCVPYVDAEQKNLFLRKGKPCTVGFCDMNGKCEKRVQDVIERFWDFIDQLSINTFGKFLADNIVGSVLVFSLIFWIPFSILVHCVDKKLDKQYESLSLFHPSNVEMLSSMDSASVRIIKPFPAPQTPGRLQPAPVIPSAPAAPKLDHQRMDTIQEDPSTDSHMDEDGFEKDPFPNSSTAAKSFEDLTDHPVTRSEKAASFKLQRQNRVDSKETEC

This is a selection; strong and weak results do not stand in their true shares. The source made the active and inactive calls.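 Rule for the calls: active = mean inhibition across replicates above the hit cutoff set in the primary screen (cut at about 8.5% in these data); inactive = the rest.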

The target in the assay is Disintegrin and metalloproteinase domain-containing protein 17 (Homo sapiens) (UniProt P78536). The assay can be described thus: inhibition of human ADAM17 protease activity – biochemical, QFRET peptide cleavage, confirmation (AID 743257).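 Note: 0% = DMSO wells and 100% = marimastat wells.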 The note with it: recombinant ADAM17, EDANS/DABCYL QFRET peptide cleavage; at 6.95 µM; stronger effect = higher value. A digest of the protocol: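 Material: Human ADAM17 enzyme, FRET peptide cleavage | Buffer or medium: 50 mM HEPES pH 7.5, 0.01% Brij | Doses: 6.95 µM compound, single dose | Schedule: 30 min preincubation, 3 h reaction | Technique: Fluorescence at ex 359 nm, em 460 nm | Read-out: Percent inhibition | Benchmarks: DMSO wells and 1 µM marimastat wells as references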
In the case of `CC(C)(C)n1nnnc1C(c1cccc2ccccc12)N1CCC(n2c(=O)[nH]c3ccccc32)CC1` (stereo unspecified), the inhibition was active: 20.5%.

Broadly, the inhibition is the drop in the measured response relative to a control, in per cent.
